Reference: article PMC9495348, “Polyfunctionalized α-Phenyl-tert-butyl(benzyl)nitrones: Multifunctional Antioxidants for Stroke Treatment” (Antioxidants, 2022)

Protein sequences, listed by entry. Tags and fused reporters are not part of them. Residues count along the entry.
UniProt P06276, 29-602 limits assumed: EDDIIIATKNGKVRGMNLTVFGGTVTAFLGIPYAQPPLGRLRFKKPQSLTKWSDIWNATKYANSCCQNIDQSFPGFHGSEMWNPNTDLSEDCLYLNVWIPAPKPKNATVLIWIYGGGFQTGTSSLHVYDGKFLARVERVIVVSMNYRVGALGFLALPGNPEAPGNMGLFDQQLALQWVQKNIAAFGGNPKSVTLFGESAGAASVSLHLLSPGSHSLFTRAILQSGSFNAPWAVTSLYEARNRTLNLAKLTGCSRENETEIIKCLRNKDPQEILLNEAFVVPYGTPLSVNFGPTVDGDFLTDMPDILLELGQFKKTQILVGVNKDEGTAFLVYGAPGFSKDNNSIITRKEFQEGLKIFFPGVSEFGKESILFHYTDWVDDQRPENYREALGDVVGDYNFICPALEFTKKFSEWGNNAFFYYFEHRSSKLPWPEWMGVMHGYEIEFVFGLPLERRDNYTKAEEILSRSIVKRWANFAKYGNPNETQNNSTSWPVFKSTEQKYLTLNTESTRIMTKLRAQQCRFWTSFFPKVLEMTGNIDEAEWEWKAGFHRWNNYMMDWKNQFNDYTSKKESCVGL

Target: hBChE (Homo sapiens, UniProt P06276)
Assay: hBChE inhibition (DTNB, butyrylthiocholine)
Type: biochemical
Details: read-out: hBChE IC50 ± SEM; mean ± SEM of three independent experiments; n.a. = not active (residual activity at 100 µM > 50%)

SMILES	IC50
C#CCN1CCN(CCCOc2ccccc2/C=[N+](\[O-])Cc2ccccc2)CC1	67.3 µM
[O-]/[N+](=C\c1ccc(OCCCN2CCCCC2)cc1)Cc1ccccc1 [nitrone 1, (Z)-N-Benzyl-1-(4-(3-(piperidin-1-yl)propoxy)phenyl)methanimine oxide]	45.8 µM
[O-]/[N+](=C\c1cccc(OCCCN2CCCCC2)c1)Cc1ccccc1 [nitrone 3, (Z)-N-Benzyl-1-(3-(3-(piperidin-1-yl)propoxy)phenyl)methanimine oxide]	16.4 µM
CC(C)(C)/[N+]([O-])=C/c1cccc(OCCCN2CCCCC2)c1 [nitrone 4, (Z)-N-tert-Butyl-1-(3-(3-(piperidin-1-yl)propoxy)phenyl)methanimine oxide]	28.9 µM
[O-]/[N+](=C\c1ccccc1OCCCN1CCCCC1)Cc1ccccc1 [nitrone 5, (Z)-N-Benzyl-1-(2-(3-(piperidin-1-yl)propoxy)phenyl)methanimine oxide]	3.46 µM
CC(C)(C)/[N+]([O-])=C/c1ccccc1OCCCN1CCCCC1 [nitrone 6, (Z)-N-tert-Butyl-1-(2-(3-(piperidin-1-yl)propoxy)phenyl)methanimine oxide]	6.52 µM
C#CCN1CCN(CCCOc2cccc(/C=[N+](\[O-])C(C)(C)C)c2)CC1 [nitrone 10, (Z)-N-tert-Butyl-1-(3-(3-(4-(prop-2-yn-1-yl)piperazin-1-yl)propoxy)phenyl) methanimine oxide]	51 µM
